Measurements as given in patent US20220175723A1, “METHODS AND COMPOSITIONS RELATING TO INHIBITION OF ALDEHYDE DEHYDROGENASES FOR TREATMENT OF CANCER” (THE PENN STATE RESEARCH FOUNDATION, priority 2019, published 2022).

Protein sequences, listed by entry. Tags and fused reporters are not part of them. Lines headed by an entry give the natural chain unless they say otherwise; changes in a name come on top.
UniProt P00352: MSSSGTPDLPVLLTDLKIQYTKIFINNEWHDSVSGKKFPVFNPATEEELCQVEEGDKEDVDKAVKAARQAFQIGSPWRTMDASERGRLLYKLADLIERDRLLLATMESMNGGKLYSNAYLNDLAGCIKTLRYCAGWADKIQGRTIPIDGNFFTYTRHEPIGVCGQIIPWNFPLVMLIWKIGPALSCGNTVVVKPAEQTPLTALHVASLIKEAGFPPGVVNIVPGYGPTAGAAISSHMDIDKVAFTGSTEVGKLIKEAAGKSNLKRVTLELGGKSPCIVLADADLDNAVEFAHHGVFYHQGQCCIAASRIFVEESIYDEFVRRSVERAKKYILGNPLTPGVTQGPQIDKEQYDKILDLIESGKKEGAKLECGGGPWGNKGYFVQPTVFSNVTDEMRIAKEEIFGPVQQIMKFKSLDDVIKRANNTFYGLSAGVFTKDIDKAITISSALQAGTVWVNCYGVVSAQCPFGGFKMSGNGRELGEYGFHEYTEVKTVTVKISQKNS

Tests used:
Test in all cases: ALDH isoform-specific enzyme assay (NADH absorbance 340 nm)
Format in all cases: biochemical
ALDH3A1 = target: T1, ALDH3A1 (Homo sapiens, UniProt P30838); conditions: Study 1; read-out: IC50s ALDH3A1
T1 construct: purchased R & D Systems, Inc, Minneapolis, Minn., USA
T1 sequence (P30838 1-453): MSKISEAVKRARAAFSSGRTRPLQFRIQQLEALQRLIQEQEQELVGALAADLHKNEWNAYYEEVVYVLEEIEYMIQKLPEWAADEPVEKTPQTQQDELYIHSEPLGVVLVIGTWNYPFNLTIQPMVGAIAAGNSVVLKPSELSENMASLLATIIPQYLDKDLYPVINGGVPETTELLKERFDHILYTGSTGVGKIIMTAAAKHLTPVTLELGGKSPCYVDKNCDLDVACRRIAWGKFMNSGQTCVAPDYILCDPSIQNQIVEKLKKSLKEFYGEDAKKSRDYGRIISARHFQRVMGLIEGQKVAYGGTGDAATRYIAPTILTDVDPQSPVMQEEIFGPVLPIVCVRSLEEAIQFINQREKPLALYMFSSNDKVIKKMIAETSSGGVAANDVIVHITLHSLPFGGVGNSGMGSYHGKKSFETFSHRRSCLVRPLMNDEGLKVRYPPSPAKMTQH

ALDH1A1 = target: T2, ALDH1A1 (Homo sapiens, UniProt P00352); conditions: Study 1; read-out: IC50s ALDH1A1
T2 construct: purchased R & D Systems, Inc, Minneapolis, Minn., USA

ALDH2 = target: T3, ALDH2 (Homo sapiens, UniProt P05091); conditions: Study 1; read-out: IC50s ALDH2
T3 construct: purchased R & D Systems, Inc, Minneapolis, Minn., USA
T3 sequence (P05091 18-517): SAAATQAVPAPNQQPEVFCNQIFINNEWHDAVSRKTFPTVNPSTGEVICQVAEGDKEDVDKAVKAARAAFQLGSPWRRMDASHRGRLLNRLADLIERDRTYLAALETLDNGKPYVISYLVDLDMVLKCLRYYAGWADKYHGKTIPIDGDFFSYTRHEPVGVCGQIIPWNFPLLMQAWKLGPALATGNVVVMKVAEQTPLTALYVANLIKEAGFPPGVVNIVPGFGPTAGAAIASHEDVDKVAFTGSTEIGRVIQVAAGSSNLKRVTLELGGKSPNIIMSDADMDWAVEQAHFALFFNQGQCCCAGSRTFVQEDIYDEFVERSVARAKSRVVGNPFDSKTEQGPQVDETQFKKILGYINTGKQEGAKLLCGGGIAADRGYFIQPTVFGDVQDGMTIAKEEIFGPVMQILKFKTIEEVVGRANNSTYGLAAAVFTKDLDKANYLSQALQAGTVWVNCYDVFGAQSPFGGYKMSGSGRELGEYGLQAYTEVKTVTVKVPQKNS

IC50 (ALDH3A1): 2720 nM
IC50 (ALDH1A1): 2430 nM
IC50 (ALDH2): 53 nM
Substance: CVT10216
